Assay: Tail cuff blood pressure in mice
Conditions: dose required to prevent TETS-induced tonic seizures and death when administered singly

SMILES: CN1C(=O)CN=C(c2ccccc2)c2cc(Cl)ccc21
- effect on blood pressure, single agent: significant hypotension
